Measured values: paper PMC7076352, “Large Volume Direct Injection Ultra-High Performance Liquid Chromatography–Tandem Mass Spectrometry-Based Comparative Pharmacokinetic Study between Single and Combinatory Uses of Carthamus tinctorius Extract and Notoginseng Total Saponins” (Pharmaceutics, 2020)

Amino acid sequences for entries named in this document (tags omitted). A change or cut given only in a name is not applied to a line headed by its entry.
UniProt P05182: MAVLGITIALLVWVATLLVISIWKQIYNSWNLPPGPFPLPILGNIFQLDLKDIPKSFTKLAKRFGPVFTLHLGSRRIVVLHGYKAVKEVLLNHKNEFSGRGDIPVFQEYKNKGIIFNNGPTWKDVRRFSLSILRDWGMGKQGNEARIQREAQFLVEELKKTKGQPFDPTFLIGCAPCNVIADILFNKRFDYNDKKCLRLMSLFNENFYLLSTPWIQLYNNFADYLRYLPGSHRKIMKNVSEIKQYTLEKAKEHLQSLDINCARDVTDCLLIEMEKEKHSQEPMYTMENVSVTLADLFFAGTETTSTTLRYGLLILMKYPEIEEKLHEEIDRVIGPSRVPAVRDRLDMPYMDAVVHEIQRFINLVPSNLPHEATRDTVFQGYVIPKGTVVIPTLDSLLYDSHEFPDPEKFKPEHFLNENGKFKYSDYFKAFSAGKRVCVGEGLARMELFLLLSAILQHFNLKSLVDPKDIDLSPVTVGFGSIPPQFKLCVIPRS

Columns and labels:
CYP1A2 = target: T1, CYP1A2 (Rattus norvegicus, UniProt P04799); test: In vitro cocktail CYP450 activity assay in rat liver microsomes, CYP1A2 (phenacetin probe); conditions: read-out: IC50 CYP1A2; single components; RLM 0.2 mg/mL, 15 min, triplicate, mean ± SD
T1 sequence (P04799 1-513): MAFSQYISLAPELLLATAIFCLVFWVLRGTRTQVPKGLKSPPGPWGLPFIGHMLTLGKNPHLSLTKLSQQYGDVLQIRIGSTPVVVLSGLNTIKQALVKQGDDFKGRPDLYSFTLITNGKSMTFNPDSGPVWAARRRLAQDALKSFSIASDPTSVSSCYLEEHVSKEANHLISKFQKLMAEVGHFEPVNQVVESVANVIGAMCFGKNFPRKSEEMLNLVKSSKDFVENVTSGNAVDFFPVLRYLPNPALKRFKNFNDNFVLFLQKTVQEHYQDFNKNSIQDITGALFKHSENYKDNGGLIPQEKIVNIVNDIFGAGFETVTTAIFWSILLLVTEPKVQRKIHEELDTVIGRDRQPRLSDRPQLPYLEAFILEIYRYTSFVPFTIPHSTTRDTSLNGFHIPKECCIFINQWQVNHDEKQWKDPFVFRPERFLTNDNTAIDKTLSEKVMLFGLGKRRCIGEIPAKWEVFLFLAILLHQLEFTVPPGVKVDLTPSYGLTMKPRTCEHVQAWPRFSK

CYP2E1 = CYP2E1 (Rattus norvegicus, UniProt P05182)

Substance | IC50 (CYP1A2) | IC50 (CYP2E1; read-out: IC50 CYP2E1, single components, RLM 0.2 mg/mL, 15 min, triplicate, mean ± SD) | IC50 CYP2E1 (CYP2E1; microsomes)
kaempferol-3-O-rutinoside [A11] | 53.2 ± 6.12 µM | 5.45 ± 1.37 µM | –
notoginseng total saponins [NGTS] | – | – | 16.12 ± 2.59 µg/mL
